Calls of active or inactive are those of the source. No cut-off for these calls is given here.
System: Escherichia coli
Assay: Antibacterial activity against Escherichia coli ATCC 25922 after 18 hrs by twofold serial agar dilution technique
Assay type: functional

`O=C(O)c1cn(C2CC2)c2cc(N3CCNCC3)c(F)cc2c1=O` [CIPROFLOXACIN] was tested. Which Activity did it give?
Its Activity is “inactive”.

From ChEMBL document CHEMBL2046376, “Synthesis and antimicrobial activity of amide derivatives of polyether antibiotic-salinomycin” (2012)
